According to US20180030537A1, “PUMA, A PRO-APOPTOTIC GENE, AS A NOVEL MOLECULAR BIOMARKER FOR TNFALPHA-INDUCED HUMAN ISLET DAMAGE” (CITY OF HOPE, priority 2010, published 2018):

Test system: acinar cells
Assay: TNF-α stimulation of human acinar cells, mRNA quantification
Assay type: cell-based
Conditions: 1, 5, 50 ng/ml
Experimental: FIGS. 8A-L. TNF-α induces PUMA expression in human islets and acinar cells. FIG. 8A) TNF-α induced Bcl-2 family mRNA in islets. Single islets were stimulated with or without 50 ng/ml TNF-α for 16 hours. Each dot indicates the result of one islet lot tested in hextuplicate. The tests were performed using 4 different human islet lots. Bars indicate the mean of 4 lots. Each gene expression was normalized by ACTB (a gene encoding β actin), and the fold increase was calculated by dividing TNF-α treated islets by control islets (*p<0.01, n=4). […] FIGS. 8B-D) PUMA (FIG. 8B), IL-8 (FIG. 8C) and TNF-α (FIG. 8D) expression from single human islets (n=6) stimulated with 0 (open circles), 1 (solid triangles), 5 (solid squares) and 50 ng/ml (solid circles) TNF-α for 0, 1, 4, 16 hours in 3 independent cases. Dose dependent expression of (FIG. 8E) PUMA, (FIG. 8F) IL-8 and (FIG. 8G) TNF-α in human islet at the 4 hour time point (n=3). The PUMA expression in human islets was elevated by TNF-α as early as one hour, increased during the next 4 hours, and maintained at the similar level for 16 hours. […] (FIG. 8H) PUMA, (FIG. 8I) IL-8 and (FIG. 8J) TNF-α mRNA expression in acinar cells, in triplicate, stimulated with 0 (open circles), 1 (solid triangles), 5 (solid squares) and 50 (solid circles) ng/ml TNF-α for 0, 1, 4, 16 hours. Representative data from two independent cases is shown. (FIG. 8K) PUMA and (FIG. 8L) IL-8 expression in human islets stimulated with or without TNF-α (1, 5, 50 ng/ml) and/or IFNγ (10, 100, 1000 U/ml) for 4 hours. When combined with TNF-α, IFNγ strongly augmented TNF-α mediated PUMA expression. PUMA expression is highest for TNF-α at 50 ng/ml+IFNγ at 1000 U/ml. […] All data are presented as a mean±standard error. […] However, unlike in the islets, the expression of PUMA and IL-8 reached to the peak level by 4 hours and decreased to the basal level by 16 hours. […]

TNF-α: recombinant human (or rat, for INS-1) TNF-α, R&D Systems; cytokine stimulus
increased: TNF mRNA expression in acinar cells (FIG. 8J) | PUMA mRNA expression in acinar cells (peak by 4 hours, basal by 16 hours, FIG. 8H) | IL-8 mRNA expression in acinar cells (peak by 4 hours, basal by 16 hours, FIG. 8I)
